# PubChem BioAssay AID588675 (Johns Hopkins Ion Channel Center, 2011)
# Amino acid sequences for entries named in this document (tags omitted). A change or cut given only in a name is not applied to a line headed by its entry.
# UniProt Q96LB2: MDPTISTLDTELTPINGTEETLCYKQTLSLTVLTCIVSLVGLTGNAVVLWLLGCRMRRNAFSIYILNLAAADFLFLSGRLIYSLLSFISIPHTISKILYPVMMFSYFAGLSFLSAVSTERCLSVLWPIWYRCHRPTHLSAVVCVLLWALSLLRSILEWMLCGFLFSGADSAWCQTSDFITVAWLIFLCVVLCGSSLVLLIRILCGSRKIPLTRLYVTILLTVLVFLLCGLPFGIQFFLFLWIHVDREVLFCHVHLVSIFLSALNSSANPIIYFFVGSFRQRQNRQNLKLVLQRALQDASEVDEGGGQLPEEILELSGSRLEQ
# The entries are a selection whose mix differs from that of the whole data set. Activity calls are given as the source filed them.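 Rule for the calls: active = plate-corrected calcium response at least 3 library SD above typical, normal starting fluorescence, not activating the receptor alone; inactive = the rest.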
# Target: Mas-related G-protein coupled receptor member X1 (Homo sapiens) (UniProt Q96LB2)
# Test: positive allosteric modulators of MrgX1, primary screen, HEK293 cells, Fluo-4 calcium flux (AID 588675);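 note: compound read alongside a low EC10 to EC30 dose of BAM8-22 agonist; peak minus trough fluorescence over baseline measured at the second addition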
# Conditions: MrgX1-HEK293, Fluo-4 calcium flux, FDSS; at 10 µM; active compounds read high
row,Compound,B-score
1,CCc1nc2c(n1)c1c(non1O)c1c2no[n+]1[O-],active: 8.69
2,CN(C)C(=O)OCCc1n(C)cc[n+]1C,active: 6.62
